# Assay results as given in PubChem BioAssay AID1229 (Sanford-Burnham Center for Chemical Genomics, 2008).
# Some of the results follow. The source made the active and inactive calls.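 How the source made its calls: active means diaphorase activity raised at least twofold by the compound at 20 µM; inactive means activation factor below 2.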
# Assay: compounds boosting diaphorase resazurin reduction – biochemical, uHTS, resorufin fluorescence, counter-screen for diaphorase-coupled primary assays, primary screen (AID 1229)
# Conditions: Diaphorase/resazurin coupled assay, 16 min, at 20 µM, stronger effect = higher value, 1 = vehicle wells, 0 = NADH-free wells
# Procedure, shortened: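 Test system: Clostridium kluyveri diaphorase, purified enzyme. Buffer or medium: 50 mM HEPES pH 7.4 buffer plus MgCl2 and Tween 20. Also added: 0.114 mM NADH and 0.1 mM resazurin, final amounts. Dosing: compound 20 µM once, DMSO 1%. Schedule: 16 min enzyme reaction, ambient temperature. Detection: fluorescence of resorufin, 544 nm excitation, 590 nm emission.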
row,Compound,activation factor
1,CCN(N=Nc1nonc1N)c1nonc1N,inactive: 0.8
2,Cc1cc(SC(NC(=O)c2ccc(F)cc2)C(Cl)(Cl)Cl)ncn1 (stereo not drawn),inactive: 0.7
3,Cc1c2non([O-])c-2c(C)[n+](=O)[n+]1[O-],inactive: 0.5
4,O=C(NC(Sc1ccncn1)C(Cl)(Cl)Cl)c1ccccc1 (stereo not drawn),inactive: 0.7
5,Oc1ccccc1CNc1ccccn1,inactive: 1
6,CC(C)CC(=O)NC(Sc1ccc(Cl)cc1)C(Cl)(Cl)Cl (stereo not drawn),inactive: 1
7,Clc1ccc(Cl)c(NC2=NCC(CBr)S2)c1 (stereo not drawn),inactive: 1.1
8,CN1CCCC(OC(=O)C(c2ccccc2)c2ccccc2)C1 (stereo not drawn),inactive: 1
9,Cc1ccc(N/C(=N/P(=O)(N2CCOCC2)N2CCOCC2)N2CCOCC2)cc1,inactive: 1
10,NC(=O)c1cc([N+](=O)[O-])cc([N+](=O)[O-])c1N,inactive: 1.1
11,CC1CCN(C(=O)Oc2c(Cl)cc(Cl)c3cccnc23)CC1,inactive: 1
12,CN(C)C(=O)OCCc1n(C)cc[n+]1C,inactive: 1
13,CC(C)=N/N=C(\N)N[N+](=O)[O-],inactive: 1.2
14,CCN(/C(=N/P(=O)(N1CCOCC1)N1CCOCC1)N1CCOCC1)c1ccc(OC)cc1,inactive: 1
15,CCc1nc2c(n1)c1c(non1O)c1c2no[n+]1[O-],inactive: 0.3
16,O=[N+]([O-])c1cc([N+](=O)[O-])c(CCNc2ccccc2)c([N+](=O)[O-])c1,inactive: 0.8
17,O=[N+]([O-])c1cccc2n[nH]nc12,inactive: 1
18,COc1ccc(C2=NCC(CBr)S2)cc1 (stereo not drawn),inactive: 1.2
19,O=[N+]([O-])c1ncn(CCn2ncnc2[N+](=O)[O-])n1,inactive: 1
20,O=C(OC1CN2CCC1CC2)c1cccc(Cl)c1 (stereo not drawn),inactive: 1
21,C(Cc1nn[nH]n1)Cc1nn[nH]n1,inactive: 1
22,O=P(Nc1ccccn1)(c1ccc(Br)cc1)c1ccc(Br)cc1,inactive: 1
23,O=P(Nc1nccs1)(c1ccccc1)c1ccccc1,inactive: 1
24,CC(=O)Nc1ccc(Oc2c([N+](=O)[O-])cc([N+](=O)[O-])cc2[N+](=O)[O-])cc1,inactive: 1

row,Compound,activation factor
1,CCOc1ccc(C2=NCC(CBr)S2)cc1 (stereo not drawn),inactive: 1.1
2,O=c1c2cc([N+](=O)[O-])ccc2[nH]c2c([N+](=O)[O-])cc([N+](=O)[O-])cc12,inactive: 0.7
3,c1ccc(-c2nn[nH]n2)c(-c2nn[nH]n2)c1,inactive: 1.2
4,O=C(NC1CCS(=O)(=O)C1)NP(=S)(Oc1ccccc1)Oc1ccccc1 (stereo not drawn),inactive: 0.8
5,O=P(Nc1nccs1)(Oc1ccccc1)Oc1ccccc1,inactive: 1
6,COc1cc(C2NCCC3(OCCO3)C2(C)C)cc(OC)c1OC (stereo not drawn),inactive: 0.8
7,Cc1ccc(NCCc2c([N+](=O)[O-])cc([N+](=O)[O-])cc2[N+](=O)[O-])cc1,inactive: 0.6
8,CC(C)/C=N\N=C(\N)N[N+](=O)[O-],inactive: 1
9,CN(C(=O)Cc1ccc(Cl)c(Cl)c1)[C@@H]1CCCC[C@H]1N1CCCC1,inactive: 0.8
10,Clc1n[nH]nc1-c1nn[nH][15n]1,inactive: 0.8
11,O=P1(Nc2ccc(Br)cn2)COc2ccccc2OC1,inactive: 1.1
12,O=P1(Nc2ncccn2)COc2ccccc2OC1,inactive: 1
13,CC1CCC(C(C)C)C(OP(=O)(Nc2ccccn2)c2ccccc2)C1 (stereo not drawn),inactive: 1
14,Cc1nn(-c2ccccc2)c2c1P(=O)(N1CCOCC1)N(C)C(c1ccccc1)=N2 (stereo not drawn),inactive: 0.8
15,O=P(Nc1ccccn1)(c1cccc2ccccc12)c1cccc2ccccc12,inactive: 0.7
16,Cc1cc(SC(NC=O)C(Cl)(Cl)Cl)ncn1 (stereo not drawn),inactive: 1
17,CCC(C)N(CC(C)C)C(=S)SC(NC(C)=O)C(Cl)(Cl)Cl (stereo not drawn),inactive: 1.1
18,COP1(=S)c2c(C)nn(CCC#N)c2N=C(c2ccc(F)cc2)N1C (stereo not drawn),inactive: 1.1
19,COc1ccc(N/C(=N/P(=O)(N2CCOCC2)N2CCOCC2)N2CCOCC2)cc1,inactive: 1
20,Cc1c2c(nc3ccccc13)SC(C(Cl)Cl)C2 (stereo not drawn),inactive: 0.8
21,Cc1cc(=O)[nH]c(N[N+](=O)[O-])n1,inactive: 1
22,O=C(OC1CN2CCC1CC2)C12CC3CC(CC(C3)C1)C2 (stereo not drawn),inactive: 1
23,CCN(CC)C(=S)SC(NC=O)C(Cl)(Cl)Cl (stereo not drawn),inactive: 1
24,Cc1ccc2nc3c(c(C)c2c1)CC(C(Cl)Cl)S3 (stereo not drawn),inactive: 0.8
